Source: PMC9394474

Target: human hisTRIM7- (human) (UniProt Q9C029)
Assay: ITC

Substance CVB3 2BC C-terminal peptide has a Kd of 11.2 µM.
